According to ChEMBL document CHEMBL2074233, “Expression and pharmacological profile of the human organic cation transporters hOCT1, hOCT2 and hOCT3” (Br J Pharmacol, 2002):

Biological target: T1, Solute carrier family 22 member 2 (Homo sapiens, UniProt O15244)
T1 sequence (O15244 whole entry): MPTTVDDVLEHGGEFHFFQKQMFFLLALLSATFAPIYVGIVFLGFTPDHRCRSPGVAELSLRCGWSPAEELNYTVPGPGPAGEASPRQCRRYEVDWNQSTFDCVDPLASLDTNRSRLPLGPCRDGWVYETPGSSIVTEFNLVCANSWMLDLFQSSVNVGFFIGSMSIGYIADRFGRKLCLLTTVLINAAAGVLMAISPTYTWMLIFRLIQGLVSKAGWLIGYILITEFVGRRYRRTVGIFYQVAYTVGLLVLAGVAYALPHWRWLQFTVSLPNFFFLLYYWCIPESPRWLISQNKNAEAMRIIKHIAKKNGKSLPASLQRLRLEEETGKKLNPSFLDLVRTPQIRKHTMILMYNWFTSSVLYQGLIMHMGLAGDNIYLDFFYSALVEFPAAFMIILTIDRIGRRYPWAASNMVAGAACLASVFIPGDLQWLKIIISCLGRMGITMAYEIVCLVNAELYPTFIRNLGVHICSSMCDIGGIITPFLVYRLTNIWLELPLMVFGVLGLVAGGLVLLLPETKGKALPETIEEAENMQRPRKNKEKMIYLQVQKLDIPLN
Test: TP_TRANSPORTER: inhibition of MPP+ uptake (MPP+: 0.025 uM) in OCT2-expressing HEK293 cells

Compound	IC50
CC(COc1ccccc1)N(CCCl)Cc1ccccc1 (configuration not stated) [PHENOXYBENZAMINE]	4.9 µM
COc1cc2nc(N3CCN(C(=O)c4ccco4)CC3)nc(N)c2cc1OC [PRAZOSIN]	> 100 µM
